Drawing on PubChem BioAssay AID602393 (Broad Institute, 2012), this text covers reporter increase for 89 compounds.

Molecules are shown by their SMILES. This is a selection; strong and weak results do not stand in their true shares. The source made the active and inactive calls. Cut-off read from the data, not from the text of the source: active = activation above about 40%; inconclusive = no clear call, values can overlap the other calls; inactive = below that.

The nature of the assay: raisers of Bmi1 knock-in reporter signal – mouse ES cells, Bmi1 luciferase knock-in, single point, esBAF inhibitor project, primary screen (AID 602393).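 Note: 0% = median of the plate's neutral control wells and 100% = double that signal; a rise in the Bmi1 reporter signal indicates esBAF inhibition.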 The settings on record: 24 h, at 12.5 µM, hits give high values, 100% = twice the neutral-well signal.
Take `COc1cc(OC)c(C(=O)NCC2(N(C)C)CCCCC2)cc1OC`: the reporter increase was inactive: 5.52%.

For `CCC(c1nnnn1C(C)(C)C)N1CCC(n2c(=O)[nH]c3ccccc32)CC1` (centres undefined), the reporter increase was inactive: 1.94%.

On to `O=C(NCC1(N2CCOCC2)CCCCC1)c1cc(F)c(F)cc1Cl`, for which the reporter increase is inactive: 2.96%.

For `CCCCn1nnnc1C(c1ccnc2ccccc12)N1CCC(n2c(=O)[nH]c3ccccc32)CC1` (centres undefined), the reporter increase is inactive: -2.28%.

Regarding `CCCCn1nnnc1C(c1ccccc1OC(F)(F)F)N1CCC(n2c(=O)[nH]c3ccccc32)CC1` (centres undefined), the reporter increase was inactive: 6.8%.

In the case of `COc1ccc(CN(CCCl)CCCl)cc1Cl`, the reporter increase is inactive: -4.57%.

For `CN(C)c1cccc(C(=O)NCC2(N3CCCCC3)CCCCC2)c1`, the reporter increase was inactive: 5.03%.

On to `COc1ccc(C(c2nnnn2C2CCCC2)N2CCC(n3c(=O)[nH]c4ccccc43)CC2)cc1` (centres undefined), for which the reporter increase is inactive: -5.18%.

Regarding `Cc1ccc(C(=O)NCC2(N(C)C)CCCCC2)o1`, the reporter increase was inactive: -1.64%.

In the case of `CCCOc1ccc(C(=O)NCC2(N(C)C)CCCCC2)cc1OC`, the reporter increase was inactive: -0.983%.

As to `O=C(NCC1(N2CCCCC2)CCCCC1)c1cncc(Br)c1`, the reporter increase is inactive: -2.92%.

As for `CCN1CCC(Nc2ccc(Cl)cc2)CC1`, the reporter increase was inactive: -8.43%.

For `O=c1[nH]c2ccccc2n1C1CCN(C(c2ccccc2OC(F)(F)F)c2nnnn2C2CCCC2)CC1` (centres undefined), the reporter increase was inactive: -8.58%.

Consider `N#CC1(Nc2ccccc2)CCN(CCc2ccccc2)CC1`, for which the reporter increase was inactive: -6.02%.

As for `CC(C)(C)n1nnnc1C(c1ccccc1OC(F)(F)F)N1CCC(n2c(=O)[nH]c3ccccc32)CC1` (centres undefined), the reporter increase is inactive: -2.53%.

Turning to `O=C(NCC1(N2CCCCC2)CCCCC1)c1ccc(OC(F)F)cc1`, the reporter increase was inactive: -7.03%.

For `O=C(NCC1(N2CCOCC2)CCCCC1)c1cc(=O)[nH]c2ccccc12`, the reporter increase was inactive: -4.56%.

In the case of `COc1cc(C(=O)NCC2(N3CCCCC3)CCCCC2)ccc1OC(F)F`, the reporter increase was inactive: -1.73%.

`CC(C)c1ccc(C(=O)NCC2(N3CCOCC3)CCCCC2)cc1`: the reporter increase is inactive: 10.7%.

Take `CCCCn1nnnc1C(c1cccc2ccccc12)N1CCC(n2c(=O)[nH]c3ccccc32)CC1` (centres undefined): the reporter increase is inactive: 1.65%.

Take `O=C(NCC1(N2CCCCC2)CCCCC1)c1cccc(C(F)(F)F)c1`: the reporter increase was inactive: -4.96%.

On to `O=P1(N(CCCl)CCCl)SCCCS1`, for which the reporter increase was inactive: -1.24%.

Consider `CCCCn1nnnc1C(c1cc2ccccc2o1)N1CCC(n2c(=O)[nH]c3ccccc32)CC1` (centres undefined), for which the reporter increase was inactive: -0.107%.

Consider `O=C(NCC1(N2CCCCC2)CCCCC1)c1ccc(F)cc1`, for which the reporter increase was inactive: -0.297%.

Take `CCOC(=O)N1CCC(Nc2ccc(F)cc2)CC1`: the reporter increase is inactive: -10.3%.

For the compound `COc1ccc(NC2CCN(CCc3ccccc3)CC2)c(OC)c1`, the reporter increase is inactive: -6.58%.

Turning to `CC(C)(C)n1nnnc1C(c1ccccc1)N1CCC(n2c(=O)[nH]c3ccccc32)CC1` (centres undefined), the reporter increase is inactive: -3.47%.

Consider `O=C1CCN(Cc2ccccc2)CC1`, for which the reporter increase was inactive: 17.2%.

As to `CCOC(=O)N1CCC(Nc2cccc(C)c2)CC1`, the reporter increase was inactive: 10.5%.

For `COc1cc(C(=O)NCC2(N(C)C)CCCCC2)ccc1OC(F)F`, the reporter increase was inactive: 2.53%.

Take `O=c1[nH]c2ccccc2n1C1CCN(C(c2cccc3ccccc23)c2nnnn2C2CCCC2)CC1` (centres undefined): the reporter increase was inactive: -1.99%.

For `O=c1[nH]c2ccccc2n1C1CCN(C(c2ccccc2)c2nnnn2C2CCCCC2)CC1` (centres undefined), the reporter increase was inactive: -0.222%.

For `CSc1ccccc1C(=O)NCC1(N2CCCCC2)CCCCC1`, the reporter increase was inactive: 0.133%.

Consider `Cc1cccc(NC2(C#N)CCN(Cc3ccccc3)CC2)c1`, for which the reporter increase is inactive: 1.7%.

In the case of `COc1ccc(C(=O)NCC2(N3CCCCC3)CCCCC2)cc1`, the reporter increase is inactive: -3.06%.

Consider `CC(C)(C)OC(=O)N1CCC(N(C(=O)c2ccccc2)c2ccc(F)cc2)CC1`, for which the reporter increase was inactive: -6.72%.

Regarding `CCC(c1nnnn1C1CCCC1)N1CCC(n2c(=O)[nH]c3ccccc32)CC1` (centres undefined), the reporter increase is inactive: -7.32%.

Take `O=C(NCC1(N2CCCCC2)CCCCC1)c1ccc(=O)[nH]c1`: the reporter increase is inactive: -9.07%.

Turning to `CCCCn1nnnc1C(CC)N1CCC(n2c(=O)[nH]c3ccccc32)CC1` (centres undefined), the reporter increase is inactive: -8.64%.

Regarding `O=C(NCC1(N2CCCCC2)CCCCC1)c1cccs1`, the reporter increase was inactive: -4.41%.

Take `CCCCn1nnnc1C(c1cccs1)N1CCC(n2c(=O)[nH]c3ccccc32)CC1` (centres undefined): the reporter increase is inactive: -1.19%.

As for `O=C(NCC1(N2CCCCC2)CCCCC1)c1ccc(Cl)s1`, the reporter increase is inactive: -4.28%.

`O=c1[nH]c2ccccc2n1C1CCN(C(c2cc3ccccc3o2)c2nnnn2C2CCCCC2)CC1` (centres undefined): the reporter increase is inactive: 2.92%.

For `O=C(OC1CN2CCC1CC2)C1c2ccccc2Oc2ccccc21` (centres undefined), the reporter increase was inactive: -0.397%.

As for `COc1ccc(Cl)cc1C(=O)NCC1(N2CCOCC2)CCCCC1`, the reporter increase is inactive: -1.92%.

In the case of `CCOC(=O)N1CCC(Nc2ccc(OC)cc2)CC1`, the reporter increase was inactive: -7.26%.

With `CCCCn1nnnc1C(c1ccc(OC)cc1)N1CCC(n2c(=O)[nH]c3ccccc32)CC1` (centres undefined), the reporter increase is inactive: 1.04%.

Consider `O=C(NCC1(N2CCCCC2)CCCCC1)c1ccc(Cl)nc1`, for which the reporter increase is inactive: 0.629%.

As to `O=c1[nH]c2ccccc2n1C1CCN(C(c2ccccc2OC(F)(F)F)c2nnnn2C2CCCCC2)CC1` (centres undefined), the reporter increase was inactive: 6.32%.

For `Cc1cc(C)cc(N(C(=O)c2ccccc2)C2CCN(C(=O)OC(C)(C)C)CC2)c1`, the reporter increase was inactive: 6.5%.

On to `O=C(O)C1(Nc2ccccc2)CCN(Cc2ccccc2)CC1`, for which the reporter increase is inactive: -2.96%.

Consider `O=c1[nH]c2ccccc2n1C1CCN(C(c2cc3ccccc3o2)c2nnnn2C2CCCC2)CC1` (centres undefined), for which the reporter increase was inactive: 14.1%.

For `CCCOc1ccc(C(=O)NCC2(N(C)C)CCCCC2)cc1`, the reporter increase is inactive: 4.23%.

As to `CCOc1ncccc1C(=O)NCC1(N2CCOCC2)CCCCC1`, the reporter increase is inactive: -6.79%.

On to `CN1CCC(Nc2ccc(F)c(Cl)c2)CC1`, for which the reporter increase was inactive: 3.13%.

For the compound `CN1CCC(Nc2ccc(Cl)cc2)CC1`, the reporter increase is inactive: 0.0305%.

For the compound `COc1cccc(C(=O)N(c2cc(C)cc(C)c2)C2CCN(C(=O)OC(C)(C)C)CC2)c1`, the reporter increase was inactive: 5.75%.

For `COc1cccc(C(c2nnnn2C2CCCC2)N2CCC(n3c(=O)[nH]c4ccccc43)CC2)c1OC` (centres undefined), the reporter increase is inactive: -4.42%.

Regarding `COc1cc(OC)cc(C(=O)NCC2(N3CCOCC3)CCCCC2)c1`, the reporter increase is inactive: -6.28%.

In the case of `CCC(CO)(C(=O)OC1CN2CCC1CC2)c1ccccc1` (centres undefined), the reporter increase is inactive: 5.85%.

With `Cc1ccc(C(=O)NCC2(N3CCCCC3)CCCCC2)o1`, the reporter increase was inactive: -4.7%.

For the compound `Fc1ccccc1NC1CCN(Cc2ccccc2)CC1`, the reporter increase was inactive: -7.92%.

Turning to `Cc1ccc(NC2(C#N)CCN(Cc3ccccc3)CC2)cc1`, the reporter increase was inactive: -7.74%.

As for `COc1cccc(C(c2nnnn2C2CCCCC2)N2CCC(n3c(=O)[nH]c4ccccc43)CC2)c1OC` (centres undefined), the reporter increase was inactive: -3.34%.

Turning to `CC(=O)N(c1ccccc1)C1CCNCC1`, the reporter increase was inactive: 0.277%.

Regarding `CCC(c1nnnn1C1CCCCC1)N1CCC(n2c(=O)[nH]c3ccccc32)CC1` (centres undefined), the reporter increase is inactive: -8.42%.

For `COc1cc(OC)cc(C(=O)NCC2(N3CCCCC3)CCCCC2)c1`, the reporter increase is inactive: -3.73%.

Take `O=c1[nH]c2ccccc2n1C1CCN(C(c2ccnc3ccccc23)c2nnnn2C2CCCCC2)CC1` (centres undefined): the reporter increase was inactive: -1.2%.

`O=C(NCC1(N2CCCCC2)CCCCC1)c1ccco1`: the reporter increase was inactive: 0.626%.

For `Cn1c(=O)[nH]cc(N(CCCl)CCCl)c1=O`, the reporter increase was inactive: -11.6%.

For the compound `Cc1ccccc1NC1(C#N)CCN(Cc2ccccc2)CC1`, the reporter increase was inactive: 4.95%.

Take `COc1ccc(C(c2nnnn2C2CCCCC2)N2CCC(n3c(=O)[nH]c4ccccc43)CC2)cc1` (centres undefined): the reporter increase was inactive: -1.69%.

Turning to `CC(C)(C)n1nnnc1C(c1ccnc2ccccc12)N1CCC(n2c(=O)[nH]c3ccccc32)CC1` (centres undefined), the reporter increase was inactive: 3.26%.

Regarding `N#Cc1ccc(C(=O)NCC2(N3CCCCC3)CCCCC2)cc1`, the reporter increase was inactive: -4.53%.

In the case of `CC(C)(C)OC(=O)N1CCC(N(C(=O)c2ccccc2)c2ccc(Cl)cc2)CC1`, the reporter increase was inactive: -7.46%.

`CC(C)(C)n1nnnc1C(c1cccc2ccccc12)N1CCC(n2c(=O)[nH]c3ccccc32)CC1` (centres undefined): the reporter increase was inactive: 1.06%.

For the compound `CN(C)C1(CNC(=O)c2cccc(C#N)c2)CCCCC1`, the reporter increase was inactive: -1.27%.

In the case of `CCCN1CCC(Nc2cc(OC)cc(OC)c2)CC1`, the reporter increase was inactive: 1.59%.

Regarding `O=c1[nH]c2ccccc2n1C1CCN(C(c2ccccc2)c2nnnn2C2CCCC2)CC1` (centres undefined), the reporter increase is inactive: 1.16%.

In the case of `O=c1[nH]c2ccccc2n1C1CCN(C(c2cccs2)c2nnnn2C2CCCCC2)CC1` (centres undefined), the reporter increase is inactive: 1.46%.

Consider `O=c1[nH]c2ccccc2n1C1CCN(C(c2ccnc3ccccc23)c2nnnn2C2CCCC2)CC1` (centres undefined), for which the reporter increase is inactive: -2.4%.

As for `CCCCn1nnnc1C(c1ccccc1)N1CCC(n2c(=O)[nH]c3ccccc32)CC1` (centres undefined), the reporter increase was inactive: -6.7%.

Turning to `COc1cc(C(=O)NCC2(N3CCOCC3)CCCCC2)cc(OC)c1C`, the reporter increase is inactive: 7.88%.

Consider `O=C(NCC1(N2CCOCC2)CCCCC1)c1cc(Br)ccc1Cl`, for which the reporter increase was inactive: 8.04%.

For the compound `O=c1[nH]c2ccccc2n1C1CCN(C(c2cccs2)c2nnnn2C2CCCC2)CC1` (centres undefined), the reporter increase is inactive: -6.64%.

For `CCCCn1nnnc1C(c1cccc(OC)c1OC)N1CCC(n2c(=O)[nH]c3ccccc32)CC1` (centres undefined), the reporter increase is inactive: 1.12%.

For the compound `CCOC(=O)N1CCC(Nc2ccc(C)cc2)CC1`, the reporter increase is inactive: 7.17%.

As to `COc1cccc(C(c2nnnn2C(C)(C)C)N2CCC(n3c(=O)[nH]c4ccccc43)CC2)c1OC` (centres undefined), the reporter increase is inactive: -5.46%.

Turning to `N/C(=N\O)c1c(N)no[n+]1[O-]`, the reporter increase was inactive: 4.02%.
